Kd and inhibition data for 17 molecules are collected here from US11866518B2, “Bicyclic peptide ligands specific for TSLP” (BicycleTx Limited, priority 2020, dated 2024).

For one experiment, the target named is T1, TSLP (Homo sapiens, UniProt Q969D9).
T1 sequence (Q969D9 29-159): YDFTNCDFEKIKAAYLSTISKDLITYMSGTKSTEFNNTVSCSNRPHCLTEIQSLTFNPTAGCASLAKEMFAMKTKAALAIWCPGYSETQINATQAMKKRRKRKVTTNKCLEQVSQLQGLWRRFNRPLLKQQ
The experiment is described as follows: Human TSLP Surface Plasmon Resonance (SPR) binding assay. The conditions noted are these: biotinylated human TSLP immobilized on streptavidin chip; 20° C.; steady-state or kinetic 1:1 fit; read-out: hTSLP SPR Kd. Details: The resulting construct spCD33-6×HN-TEV-hTSLP(29-159)-Avi; 6xHN tag with TEV site (N, cleaved yes); made in house; host or cells: Expi293F cells.
Turning to `CC[C@H](C)[C@@H]1NC(=O)[C@H](Cc2c[nH]c3ccccc23)NC(=O)[C@H](CCC(N)=O)NC(=O)[C@@H](NC(C)=O)CSCCC(=O)N2CN3CN(C2)C(=O)CCSC[C@H](NC(=O)[C@H](CC(=O)O)NC(=O)[C@H](CCC(=O)O)NC1=O)C(=O)N[C@@H](Cc1c[nH]c2ccccc12)C(=O)N[C@@H](CCCNC(=N)N)C(=O)NCC(=O)N[C@@H](Cc1ccc(F)cc1)C(=O)N[C@H](C(N)=O)CSCCC3=O` [Example 57, Ac-(SEQ ID NO: 45)], the Kd (as a rule, a measure of binding affinity in units of concentration) is 51 nM.

As for `CC(=O)N[C@H]1CSCCC(=O)N2CN3CN(C2)C(=O)CCSC[C@H](NC(=O)[C@H](CC(=O)O)NC(=O)[C@H](CCC(=O)O)NC(=O)[C@H](CC(C)C)NC(=O)[C@H](Cc2c[nH]c4ccccc24)NC(=O)[C@@H](C)NC1=O)C(=O)N[C@@H](Cc1c[nH]c2ccccc12)C(=O)N[C@@H](CCCNC(=N)N)C(=O)NCC(=O)N[C@@H](Cc1ccc(F)cc1)C(=O)N[C@H](C(N)=O)CSCCC3=O` [Example 126, Ac-(SEQ ID NO: 90)], the Kd is 310 nM.

As for `CC(=O)N[C@H]1CSCCC(=O)N2CN3CN(C2)C(=O)CCSC[C@H](NC(=O)[C@H](CC(=O)O)NC(=O)[C@H](CCC(N)=O)NC(=O)[C@H](CC(C)C)NC(=O)[C@H](Cc2c[nH]c4ccccc24)NC(=O)[C@H](Cc2c[nH]c4ccccc24)NC1=O)C(=O)N[C@@H](Cc1c[nH]c2ccccc12)C(=O)N[C@@H](CCCNC(=N)N(C)C)C(=O)NCC(=O)N[C@@H](Cc1ccc(F)cc1)C(=O)N[C@H](C(N)=O)CSCCC3=O` [Example 28, Ac-(SEQ ID NO: 26)], the Kd worked out at 12 nM.

Take `CCC(C)C[C@@H]1NC(=O)[C@H](Cc2c[nH]c3ccccc23)NC(=O)[C@H](CCC(N)=O)NC(=O)[C@@H](NC(C)=O)CSCCC(=O)N2CN3CN(C2)C(=O)CCSC[C@H](NC(=O)[C@H](CC(=O)O)NC(=O)[C@H](CCC(=O)O)NC1=O)C(=O)N[C@@H](Cc1c[nH]c2ccccc12)C(=O)N[C@@H](CCCNC(=N)N)C(=O)NCC(=O)N[C@@H](Cc1ccc(F)cc1)C(=O)N[C@H](C(N)=O)CSCCC3=O` (some centres unmarked) [Example 160, Ac-(SEQ ID NO: 118)]: the Kd was 10000 nM.

On to `CC(=O)N[C@H]1CSCCC(=O)N2CN3CN(C2)C(=O)CCSC[C@H](NC(=O)[C@H](CC(N)=O)NC(=O)[C@H](CCC(=O)O)NC(=O)[C@H](CC(C)C)NC(=O)[C@H](Cc2c[nH]c4ccccc24)NC(=O)[C@H](CCC(N)=O)NC1=O)C(=O)N[C@@H](Cc1c[nH]c2ccccc12)C(=O)N[C@@H](CCCNC(=N)N)C(=O)NCC(=O)N[C@@H](Cc1ccc(F)cc1)C(=O)N[C@H](C(N)=O)CSCCC3=O` [Example 23, Ac-(SEQ ID NO: 21)], for which the Kd was found to be 9.9 nM.

Turning to `CC(=O)N[C@H]1CSCCC(=O)N2CN3CN(C2)C(=O)CCSC[C@H](NC(=O)[C@H](CC(=O)O)NC(=O)[C@H](Cc2cccc(Cl)c2)NC(=O)[C@H](CC(C)C)NC(=O)[C@H](Cc2c[nH]c4ccccc24)NC(=O)[C@H](Cc2c[nH]c4ccccc24)NC1=O)C(=O)N[C@@H](Cc1c[nH]c2ccccc12)C(=O)N[C@@H](CCCNC(=N)N)C(=O)NCC(=O)N[C@@H](Cc1ccc(F)cc1)C(=O)N[C@H](C(N)=O)CSCCC3=O` [Example 144, Ac-(SEQ ID NO: 103)], the Kd was determined as 860 nM.

As to `CC(=O)N[C@H]1CSCCC(=O)N2CN3CN(C2)C(=O)CCSC[C@H](NC(=O)[C@H](CC(=O)O)NC(=O)[C@H](Cc2ccccc2)NC(=O)[C@H](CC(C)C)NC(=O)[C@H](Cc2c[nH]c4ccccc24)NC(=O)[C@H](CCC(N)=O)NC1=O)C(=O)N[C@@H](Cc1c[nH]c2ccccc12)C(=O)N[C@@H](CCCNC(=N)N)C(=O)NCC(=O)N[C@@H](Cc1ccc(F)cc1)C(=O)N[C@H](C(=O)O)CSCCC3=O` [Example 39, Ac-(SEQ ID NO: 35)-COOH], the dissociation constant (Kd) amounted to 21 nM.

Take `CC(=O)N[C@H]1CSCCC(=O)N2CN3CN(C2)C(=O)CCSC[C@H](NC(=O)[C@H](CC(=O)O)NC(=O)[C@H](CCC(=O)O)NC(=O)[C@H](CC(C)C)NC(=O)[C@H](Cc2c[nH]c4ccccc24)NC(=O)[C@@H](C)NC1=O)C(=O)N[C@@H](Cc1c[nH]c2ccccc12)C(=O)N[C@@H](CCCNC(=N)N(C)C)C(=O)NCC(=O)N[C@@H](Cc1ccc(F)cc1)C(=O)N[C@H](C(N)=O)CSCCC3=O` [Example 134, Ac-(SEQ ID NO: 95)]: the Kd is 470 nM.

Consider `CSCC[C@@H]1NC(=O)[C@H](Cc2c[nH]c3ccccc23)NC(=O)[C@H](CCC(N)=O)NC(=O)[C@@H](NC(C)=O)CSCCC(=O)N2CN3CN(C2)C(=O)CCSC[C@H](NC(=O)[C@H](CC(=O)O)NC(=O)[C@H](CCC(=O)O)NC1=O)C(=O)N[C@@H](Cc1c[nH]c2ccccc12)C(=O)N[C@@H](CCCNC(=N)N)C(=O)NCC(=O)N[C@@H](Cc1ccc(F)cc1)C(=O)N[C@H](C(N)=O)CSCCC3=O` [Example 51, Ac-(SEQ ID NO: 43)], for which the Kd worked out at 38 nM.

Regarding `CC(=O)N[C@H]1CSCCC(=O)N2CN3CN(C2)C(=O)CCSC[C@H](NC(=O)[C@H](CC(=O)O)NC(=O)[C@H](Cc2ccccc2)NC(=O)[C@H](CC(C)C)NC(=O)[C@H](Cc2c[nH]c4ccccc24)NC(=O)[C@H](CCC(N)=O)NC1=O)C(=O)N[C@@H](Cc1c[nH]c2ccccc12)C(=O)N[C@@H](CCCNC(=N)N)C(=O)NCC(=O)N[C@@H](Cc1ccc(F)cc1)C(=O)N[C@H](C(N)=O)CSCCC3=O` [Example 43, Ac-(SEQ ID NO: 35)], the Kd was determined as 30 nM.

In the case of `CC(=O)N[C@H]1CSCCC(=O)N2CN3CN(C2)C(=O)CCSC[C@H](NC(=O)[C@H](CC(=O)O)NC(=O)[C@H](CCC(=O)O)NC(=O)[C@H](CC(C)C)NC(=O)[C@H](Cc2c[nH]c4ccccc24)NC(=O)[C@H](Cc2c[nH]cn2)NC1=O)C(=O)N[C@@H](Cc1c[nH]c2ccccc12)C(=O)N[C@@H](CCCNC(=N)N)C(=O)NCC(=O)N[C@@H](Cc1ccc(F)cc1)C(=O)N[C@H](C(N)=O)CSCCC3=O` [Example 19, Ac-(SEQ ID NO: 17)], the equilibrium dissociation constant (Kd) worked out at 6.7 nM.

As for `CC(=O)N[C@H]1CSCCC(=O)N2CN3CN(C2)C(=O)CCSC[C@H](NC(=O)[C@H](CC(=O)O)NC(=O)[C@H](CCC(=O)O)NC(=O)[C@H](CC(C)C)NC(=O)[C@H](Cc2c[nH]c4ccccc24)NC(=O)[C@H](CCC(N)=O)NC1=O)C(=O)N[C@@H](Cc1ccc(Cl)c2ccccc12)C(=O)N[C@@H](CCCNC(=N)N)C(=O)NCC(=O)N[C@@H](Cc1ccc(F)cc1)C(=O)N[C@H](C(N)=O)CSCCC3=O` [Example 60, Ac-(SEQ ID NO: 47)], the Kd is 62 nM.

Regarding `CC(=O)N[C@H]1CSCCC(=O)N2CN3CN(C2)C(=O)CCSC[C@H](NC(=O)[C@H](CC(=O)O)NC(=O)[C@H](CCC(=O)O)NC(=O)[C@H](CC(C)C)NC(=O)[C@H](Cc2c[nH]c4ccccc24)NC(=O)[C@H](CCC(N)=O)NC1=O)C(=O)N[C@@H](Cc1c[nH]c2ccccc12)C(=O)N[C@@H](CCCNC(=N)N)C(=O)NCC(=O)N[C@@H](Cc1cccc(C#N)c1)C(=O)N[C@H](C(N)=O)CSCCC3=O` [Example 130, Ac-(SEQ ID NO: 91)], the Kd was determined as 400 nM.

For `CC(=O)N[C@H]1CSCCC(=O)N2CN3CN(C2)C(=O)CCSC[C@H](NC(=O)[C@H](CC(=O)O)NC(=O)[C@H](CCC(=O)O)NC(=O)[C@H](CC(C)C)N(C)C(=O)[C@H](Cc2c[nH]c4ccccc24)NC(=O)[C@H](CCC(N)=O)NC1=O)C(=O)N[C@@H](Cc1c[nH]c2ccccc12)C(=O)N[C@@H](CCCNC(=N)N)C(=O)NCC(=O)N[C@@H](Cc1ccc(F)cc1)C(=O)N[C@H](C(N)=O)CSCCC3=O` [Example 154, Ac-(SEQ ID NO: 113)], the Kd stood at 2900 nM.

Regarding `CC(=O)N[C@H]1CSCCC(=O)N2CN3CN(C2)C(=O)CCSC[C@H](NC(=O)[C@H](CC(=O)O)NC(=O)[C@H](CCC(=O)O)NC(=O)[C@H](CC(C)C)NC(=O)[C@H](Cc2c[nH]c4ccccc24)NC(=O)[C@H](C)NC1=O)C(=O)N[C@@H](Cc1cccc2ccccc12)C(=O)N[C@@H](CCCNC(=N)N)C(=O)NCC(=O)N[C@@H](Cc1ccc(F)cc1)C(=O)N[C@H](C(N)=O)CSCCC3=O` [Example 66, Ac-(SEQ ID NO: 51)], the Kd was determined as 71 nM.

With `CC(=O)N[C@H]1CSCCC(=O)N2CN3CN(C2)C(=O)CCSC[C@H](NC(=O)[C@H](CC(=O)O)NC(=O)[C@H](CCC(=O)O)NC(=O)[C@H](CC(C)C)NC(=O)[C@H](Cc2cccc4ccccc24)NC(=O)[C@H](C)NC1=O)C(=O)N[C@@H](Cc1c[nH]c2ccccc12)C(=O)N[C@@H](CCCCNC(=N)N)C(=O)NCC(=O)N[C@@H](Cc1ccc(F)cc1)C(=O)N[C@H](C(N)=O)CSCCC3=O` [Example 62, Ac-(SEQ ID NO: 48)], the Kd is 63 nM.

For another experiment, the target named is T1, TSLP. The experiment is described as follows: Human peripheral blood mononuclear cell assay (TSLP-induced CCL17/TARC). To be noted: human PBMCs; 10 μM peptide; 50 pM TSLP; 24 hours; read-out: CCL17 % Inhibition @ 10 μM, 50 pM TSLP. The format is cell-based. Details: host or cells: added to human PBMCs from healthy donors. Here is the method:
Human peripheral blood mononuclear cells (PMBCs) were obtained from heparinized whole blood (healthy donors) by density gradient centrifugation using Lymphoprep (StemCell Technologies, Vancouver, BC) according to the manufacturers instructions. The PBMCs were washed twice with PBS containing 2 mM EDTA and 2% fetal calf serum (FCS) and reconstituted in RPMI containing 10% FCS and 2% PenStrep at a final concentration of 3 million cells/mL. This cell suspension (100 μL) was aliquoted into the wells of a 96-well flat bottom tissue culture plate. 5 μL of bicycle peptide or vehicle (0.1% DMSO in complete medium) was then added and mixed with 5 μL of TSLPvehicle (complete medium). […] The plate was incubated for 30 minutes are rt. 10 μL of this mixture was added to cells and the plate was incubated for 24 hours in a 10% CO2, humidified incubator at 37° C. The plate was centrifuged at 300×g for 5 min and the collected supernatants frozen at −20° C. for subsequent CCL17/TARC analysis.
CCL17/TARC was determined by MSD (MesoScale Discovery, Maryland, USA) according to the manufacturer's instructions.
In the case of `CC(=O)N[C@H]1CSCCC(=O)N2CN3CN(C2)C(=O)CCSC[C@H](NC(=O)[C@H](CC(=O)O)NC(=O)[C@H](CCC(=O)O)NC(=O)[C@H](CC(C)(C)C)NC(=O)[C@H](Cc2c[nH]c4ccccc24)NC(=O)[C@H](CCC(N)=O)NC1=O)C(=O)N[C@@H](Cc1c[nH]c2ccccc12)C(=O)N[C@@H](CCCNC(=N)N)C(=O)NCC(=O)N[C@@H](Cc1ccc(F)cc1)C(=O)N[C@H](C(N)=O)CSCCC3=O` [Example 4, Ac-(SEQ ID NO: 4)], the inhibition (in general, the percentage by which the read-out fell short of the control) at 10 µM came to 47%.
